Patent US20230399457A1, “Bioactive Synthetic Copolymer, Bioactive Macromolecule and Related Methods Thereof” (Agency for Science, Technology and Research, priority 2020, published 2023)

Assay: Thermal stability by thermogravimetric analysis (TGA)

## arginine-glycine-aspartic acid [RGD]
  thermal degradation / significant mass loss temperature: 181 °C
